EWS-Fli inh: EWS/Fli transcriptional activity inhibition; A673 NR0B1-luciferase reporter, viability-normalised; inhibition, % at 12.6 µM; 0.67% of 350,000 active;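 active = mean inhibition of at least 50% after viability correction, with every replicate also passing that limit; inconclusive = mean reaches 50% but only one of two replicates passes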;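 note: firefly luciferase signal divided by Alamar Blue viability fluorescence both relative to DMSO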
F508del corr: correctors of CFTR F508del function in bronchial epithelial cells | CFBE cells, YFP halide quenching; stimulated with forskolin plus potentiator P3; % fluorescence drop versus neutral controls | activity (quench increase), % at 7.58 µM | 0.36% of 350,000 active | AID 720511;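 active = mean added fluorescence quench of at least 8% versus neutral control, with both replicates also reaching 8%; inconclusive = only one of the mean or replicate conditions met; inactive = mean below 8% and not both replicates reaching 8%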;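 note: cells transiently co-express mutant CFTR-F508del with the halide-sensitive YFP; corrector assay measuring rescue of mutant channel to the surface after 24 h compound exposure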
miR122 inh: blocks miR-122 activity in Huh7 sensor cells. activation (reporter increase), % at 12.5 µM. Huh7 miR-122 Renilla luciferase sensor, 48 h; neutral wells = 0, positive control = 100. 0.3% of 340,000 active;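 active = mean replicate activation score at least 90 and every replicate individually at or above 90; inconclusive = only one of the two criteria met; inactive = neither criterion met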;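 note: higher luciferase means less miR-122 activity so hits act as miR-122 inhibitors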
Yeast UUG start: alters start codon recognition fidelity in yeast. S. cerevisiae UUG-firefly luciferase reporter, luminescence/redox ratio. activity score, % at 18.7 µM. 0.13% of 350,000 active. AID 602363;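 active = replicate mean at a twofold rise or more, about +100% in these data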;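 also: firefly luciferase made from a UUG start codon reports start codon fidelity; reporter light over untreated wells divided by growth signal over untreated wells; some hits fall short of that in this replicate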
LGR2 inh: Drosophila LGR2 receptor signaling inhibition | HEK293 LGR2, CRE-luciferase, bursicon-stimulated, 4 h | inhibition, % at 9.99 µM | 0.35% of 380,000 active | AID 720647;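 active = drop in luminescence signal, shown as inhibition above about 50% in the replicate tests, limit read from the data, passing the limit was not always enough; inconclusive = probably only some replicates passing the limit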;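 note: agonist challenge used bursicon conditioned medium at about half maximal strength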
PglD inh: blocks C. jejuni PglD acetyltransferase activity. 0.098% of 360,000 active. inhibition, % at 12.5 µM. purified PglD enzyme, DTNB colorimetric CoA detection. AID 602405; in the data active = inhibition above about 16%, passing the limit was not always enough; inconclusive = no clear call, values can overlap the other calls
Numbers without * were called inactive; ? = inconclusive; . = no result given; [ ] = remark or other dose. Hits are enriched below; roughly 1.3% of the tested compounds scored in any of these assays.

#	smiles	LGR2 inh	Yeast UUG start	F508del corr
1	COc1ccccc1N1CCN(C(=O)c2cccc(N3C(=O)NC4CC3(C)Oc3c(OC)cccc34)c2)CC1 (configuration not stated)	2.8	7.9	0.7
2	Cc1ccc2c(c1)C(=O)N1[C@H]3c4cc(Cl)ccc4OC[C@@H]3[C@H](c3ccccc3)[C@]1(C)C(=O)N2	-2.7	15.9	-4.5
3	Cc1ccc2c(c1)C(=O)N1[C@H]3c4cc(C)ccc4OC[C@@H]3[C@H](c3ccccc3)[C@]1(C)C(=O)N2	5.2	8.7	-3.6
4	COc1ccc(-n2nc(C#N)c(Cl)cc2=O)cc1	105.0*	.	-10.9
5	CC(C(=O)O)N(C(=O)c1ccccc1)c1ccc(F)cc1 (configuration not stated)	7.7	-5.3	10.0*
6	NCCCn1c(C(=O)c2cc(Cl)c(N)c(Cl)c2)c2ccc([N+](=O)[O-])cc2[n+]1[O-]	17.8	-4.5	-7.1
7	COc1ccc(C=C2CS(=O)(=O)CC(=Cc3ccc(OC)cc3)C2=O)cc1	active	-21.5	-0.1
8	Fc1ccccc1CSc1nnnn1-c1ccc2c(c1)OCO2	.	-33.2	.
9	COc1cc2[nH]c3ccccc3c2cc1C	.	-20.7	-0.5
10	Cc1cc(Cl)c(S(=O)(=O)NCc2ccccc2)cc1OCC(N)=O	.	-12.0	.
11	COc1cccc(-c2cnc3c(NC(C)=O)cc(-c4cccc(NS(C)(=O)=O)c4)cn23)c1	-4.7	-16.7	3.1
12	O=C(/C=C/c1ccco1)NC(=S)Nc1nc(-c2ccc3ccccc3c2)cs1	-38.4	0.4	12.1*

#	EWS-Fli inh	PglD inh	miR122 inh
1	.	-3.4	.
2	51.9*	-1.7	-0.2
3	49.4	-1.2	-8.4
4	52.5*	.	-16.7
5	-1.8	-4.5	1.0
6	54.9*	-5.4	-6.9
7	60.1*	-0.7	28.0
8	.	2.4	12.2
9	-9.7	6.3	10.4
10	.	2.1	173.6*
11	6.0	3.5	3.6
12	?	2.1	-0.8

Some of these compounds in order of the Yeast UUG start value, high to low:
No.	Compound	Yeast UUG start
2	Cc1ccc2c(c1)C(=O)N1[C@H]3c4cc(Cl)ccc4OC[C@@H]3[C@H](c3ccccc3)[C@]1(C)C(=O)N2	15.9
1	COc1ccccc1N1CCN(C(=O)c2cccc(N3C(=O)NC4CC3(C)Oc3c(OC)cccc34)c2)CC1 (configuration not stated)	7.9
12	O=C(/C=C/c1ccco1)NC(=S)Nc1nc(-c2ccc3ccccc3c2)cs1	0.4
11	COc1cccc(-c2cnc3c(NC(C)=O)cc(-c4cccc(NS(C)(=O)=O)c4)cn23)c1	-16.7

The results go on:
#	smiles	LGR2 inh	Yeast UUG start	F508del corr
13	O=C(/C=C/c1ccco1)NC(=S)Nc1nc(-c2ccc(Cl)cc2)cs1	.	-17.0	.
14	COc1ccc([N+](=O)[O-])c(S(=O)(=O)c2ccccc2)n1	103.9*	-39.1	5.1
15	O=[N+]([O-])c1cccnc1S(=O)(=O)c1ccccc1	11.5	-29.1	1.6
16	COc1nc(OC)nc(Oc2ccc(Cl)cc2[N+](=O)[O-])n1	-8.9	.	.
17	COc1ccc([N+](=O)[O-])c(S(=O)(=O)c2ccc(Cl)cc2)n1	96.9*	-59.1	-0.7
18	O=C(Nc1ccccc1F)NC1CCCc2ccccc21 (configuration not stated)	-10.5	1.0	0.4
19	Cc1cccc(NC(=O)c2ccc3c(c2)OCCO3)c1	?	-56.2	0.1
20	CCOC(=O)c1cccc(NC(=O)c2ccc3c(c2)OCO3)c1	-61.4	-3.6	-3.5
21	Cc1ccc(C(=O)Nc2ccc3c(c2)OCCO3)c(C)c1	92.8*	-75.7	-0.6
22	CC(=O)c1cccc(NC(=O)c2ccc3c(c2)OCO3)c1	.	10.9	-4.3
23	O=C(Nc1ccc2c(c1)OCCO2)c1ccccn1	76.8*	-70.3	-0.3
24	Cc1ccc(NC(=O)c2ccc3c(c2)OCCO3)cc1C	76.5*	-79.8	0.6

#	EWS-Fli inh	PglD inh	miR122 inh
13	-6.8	14.3	2.3
14	25.3	10.6	-25.3
15	43.7	6.0	.
16	5.1	.	.
17	20.1	11.2	.
18	-1.7	10.9	-2.5
19	42.9	-2.0	-1.1
20	70.9*	-3.7	1.8
21	79.0*	4.1	-8.7
22	-61.8	-4.1	0.1
23	29.7	-2.8	-5.8
24	40.2	0.6	-2.5

Rewritten screen by screen: entries from further up
(15) O=[N+]([O-])c1cccnc1S(=O)(=O)c1ccccc1
(16) COc1nc(OC)nc(Oc2ccc(Cl)cc2[N+](=O)[O-])n1
Screen / compound no.	15	16
LGR2 inh	11.5	-8.9
Yeast UUG start	-29.1	.
F508del corr	1.6	.
EWS-Fli inh	43.7	5.1
PglD inh	6.0	.
miR122 inh	.	.

Continuation:
#	smiles	LGR2 inh	Yeast UUG start	F508del corr
25	C[C@H]1CN([C@@H](C)CO)C(=O)Cc2cc(NS(C)(=O)=O)ccc2O[C@@H]1CN(C)Cc1ccc(-c2ccccc2)cc1	.	.	1.4
26	COc1ccc(C(=O)NCc2nnc(SCC(=O)N3CCc4ccccc43)n2C2CCCCC2)cc1	1.8	-2.1	.
27	CNC(=O)C[C@@H]1CC[C@H]2[C@@H](COc3ccc(NC(=O)c4ccc(OC)cc4)cc3C(=O)N2C)O1	-11.9	-4.5	1.5
28	COc1ccc(NC(=O)c2ccc(OCC3CCCO3)cc2)cc1Cl (configuration not stated)	-43.3	-5.1	-1.0
29	Cc1ccnc(NC(=O)c2ccc(OCC3CCCO3)cc2)c1 (configuration not stated)	0.1	-66.8	-2.7
30	COc1ccc(NC(=O)c2ccc(OCC3CCCO3)cc2)cc1OC (configuration not stated)	-19.6	-17.8	8.8*
31	O=C(NCCCn1ccnc1)/C(=C/c1ccccc1)NC(=O)c1ccccc1	20.3	.	-0.9
32	CSc1ccc(/C=C(/NC(=O)c2ccccc2)C(=O)NCCCn2ccnc2)cc1	-5.5	-21.8	-1.6
33	CCOc1cc(/C=N/NC(=O)C(=O)N/N=C/c2ccc(O)c(OCC)c2)ccc1O	10.3	-3.3	-10.6
34	CCOc1cc(/C=N/NC(=O)N/N=C/c2ccc(O)c(OCC)c2)ccc1O	32.8	.	10.8*
35	CN1C/C(=C/c2ccncc2)C(=O)/C(=C/c2ccncc2)C1	1.1	-11.1	-1.1
36	CCOc1cc(/C=C2\CN(C)C/C(=C\c3ccc(O)c(OCC)c3)C2=O)ccc1O	3.5	3.5	-4.1

#	EWS-Fli inh	PglD inh	miR122 inh
25	.	10.4	17.9[16.7 µM]
26	.	-5.0	-5.6
27	-4.6	0.7	-5.1[16.7 µM]
28	-59.2	-4.6	-12.1
29	69.9*	-1.7	.
30	-38.0	2.4	0.6
31	4.7	.	11.5
32	3.7	12.5	112.8*
33	8.1	0.8	.
34	-16.1	.	.
35	56.2*	-0.6	0.3
36	52.6*	-7.9	.

Following part:
#	smiles	LGR2 inh	Yeast UUG start	F508del corr
37	COc1cc(C=C2CN(C)C(=O)C2=O)ccc1O	4.3	43.3	0.1
38	CN1C/C(=C\c2ccc(N3CCOCC3)cc2)C(=O)/C(=C/c2ccc(N3CCOCC3)cc2)C1	6.2	-1.1	.
39	O=C(COc1ccccc1[N+](=O)[O-])Nc1ccc(N2CCN(C(=O)c3cccs3)CC2)cc1	75.2*	.	3.4
40	Cc1cccc2sc(N(CCN(C)C)C(=O)/C=C/c3cccs3)nc12	14.7	-28.0	.
41	CN(C)CCCN(C(=O)/C=C/c1cccs1)c1nc2c(F)cccc2s1	55.7*	.	-4.5
42	C[C@@H]1CN([C@@H](C)CO)C(=O)CCCn2nncc2CO[C@@H]1CN(C)C(=O)Nc1ccccc1C(F)(F)F	5.3	7.9	1.5
43	COc1cc(-c2cc(NC=O)c3ncc(-c4ccccc4)n3c2)cc(OC)c1OC	-14.4	1.1	-1.8
44	COc1cc(-c2cnc3c(NC=O)cc(-c4ccccc4)cn23)cc(OC)c1OC	-48.4	-0.8	2.9
45	Cc1ccc(-c2cc(NC=O)c3ncc(-c4cnn(C)c4)n3c2)cc1	-14.3	-5.4	.
46	COc1ccc(F)cc1-c1cc(NC=O)c2ncc(-c3cc(OC)c(OC)c(OC)c3)n2c1	20.4	-10.9	4.8
47	O=C(Nc1nnc(-c2ccco2)o1)c1ccc(Br)s1	-10.3	-28.7	-0.9
48	CC(C)Cn1cc(Cl)c(=O)n(CC(C)C)c1=O	13.4	.	2.0
49	Cc1nn(-c2nc3ccccc3[nH]2)c(=O)c2ccccc12	103.1*	.	-1.3

#	EWS-Fli inh	PglD inh	miR122 inh
37	9.0	-13.1	-0.4
38	.	3.9	22.3
39	-8.1	.	.
40	.	-0.5	-0.5
41	-6.1	.	.
42	5.7	-1.6	2.8
43	12.2	-4.2	.
44	59.4*	-1.3	12.5
45	56.5*	4.1	27.1
46	60.2*	-3.5	14.0
47	0.5	5.5	-11.7
48	13.9	.	.
49	88.0*	.	5.8
